Values of other authors in US6368613B1, “Use of fluorocarbons for diagnosis and treatment of articular disorders” (Alliance Pharmaceutical Corp., priority 1996, dated 2002).

Conditions: octanol/water partition coefficient

Log Po/w | Po/w | Structure (SMILES)
3.9 |  | CC(=O)[C@H]1CC[C@H]2[C@@H]3CCC4=CC(=O)CC[C@]4(C)[C@H]3CC[C@]12C [C-progesterone, progesterone]
0.4 | 2.51 | CN/C(=N/CCSCc1nc[nH]c1C)NC#N [C-cimetidine, cimetidine]
